Measurements from PMC4482215, “Structure and dynamics of the membrane attaching nitric oxide transporter nitrophorin 7” (2015).

Chains of the proteins cited; added tags and fusions are not shown. Residues count along the entry.
UniProt Q6PQK2, 21-205 limits assumed: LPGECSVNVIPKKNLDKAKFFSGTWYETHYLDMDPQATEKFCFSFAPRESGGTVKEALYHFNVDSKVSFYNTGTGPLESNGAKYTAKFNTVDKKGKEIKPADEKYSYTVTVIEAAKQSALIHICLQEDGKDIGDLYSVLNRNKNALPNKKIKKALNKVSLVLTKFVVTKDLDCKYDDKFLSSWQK

What was measured:
nitrophorin 7 (NP7) [1] = target: T1, nitrophorin 7 (NP7) (Rhodnius prolixus, UniProt Q6PQK2); assay: X-ray crystallography (crystal soak); conditions: pH 7.8
nitrophorin 7 (NP7) [2] = target: T1, nitrophorin 7 (NP7); assay: X-ray crystallography (heme-reconstituted protein); conditions: pH 5.8; 1.42 Å; proximal ligand His60; iron photoreduced to Fe(II) in the beam; heme B orientation

NCCc1c[nH]cn1
X-ray crystallography (crystal soak) (nitrophorin 7 (NP7) [1]; 1.60 Å, coordinates heme iron, salt bridge to Asp32, heme B orientation): the binding of Hm is accomplished not only through the coordination of heme iron

C=CC1=C(C)C2=Cc3c(C=C)c(C)c4[n]3[Fe][n]3c(c(C)c(CCC(=O)O)c3=CC3=NC(=C4)C(C)=C3CCC(=O)O)=CC1=N2
X-ray crystallography (heme-reconstituted protein) (nitrophorin 7 (NP7) [2]): hosts the heme cofactor including the ligation by the proximal His60 residue

c1c[nH]cn1
X-ray crystallography (crystal soak) (nitrophorin 7 (NP7) [1]; 1.80 Å, binds heme iron, water-bridged to Asp32, heme A orientation): When ImH is bound, the missing ethylamine is compensated by H-bonding to a water molecule
